Reference: ChEMBL document CHEMBL1121613

The chains behind the UniProt entries cited, without tags or fusion partners. Where a name states a change or a piece, a line headed by the entry shows the natural chain unless it says otherwise.
UniProt P35348: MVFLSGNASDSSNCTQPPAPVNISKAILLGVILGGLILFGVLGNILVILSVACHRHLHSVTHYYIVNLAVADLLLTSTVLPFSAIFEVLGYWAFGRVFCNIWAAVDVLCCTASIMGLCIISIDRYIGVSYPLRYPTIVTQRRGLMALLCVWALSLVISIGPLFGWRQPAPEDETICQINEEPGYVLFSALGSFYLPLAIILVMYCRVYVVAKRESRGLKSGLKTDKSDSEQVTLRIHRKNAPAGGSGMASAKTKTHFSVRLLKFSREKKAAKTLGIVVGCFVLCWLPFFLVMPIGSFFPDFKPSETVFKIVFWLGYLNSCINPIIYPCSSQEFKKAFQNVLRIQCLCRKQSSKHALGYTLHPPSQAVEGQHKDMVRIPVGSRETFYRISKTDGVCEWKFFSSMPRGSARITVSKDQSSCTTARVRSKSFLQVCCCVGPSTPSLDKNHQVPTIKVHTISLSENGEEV
UniProt P08913: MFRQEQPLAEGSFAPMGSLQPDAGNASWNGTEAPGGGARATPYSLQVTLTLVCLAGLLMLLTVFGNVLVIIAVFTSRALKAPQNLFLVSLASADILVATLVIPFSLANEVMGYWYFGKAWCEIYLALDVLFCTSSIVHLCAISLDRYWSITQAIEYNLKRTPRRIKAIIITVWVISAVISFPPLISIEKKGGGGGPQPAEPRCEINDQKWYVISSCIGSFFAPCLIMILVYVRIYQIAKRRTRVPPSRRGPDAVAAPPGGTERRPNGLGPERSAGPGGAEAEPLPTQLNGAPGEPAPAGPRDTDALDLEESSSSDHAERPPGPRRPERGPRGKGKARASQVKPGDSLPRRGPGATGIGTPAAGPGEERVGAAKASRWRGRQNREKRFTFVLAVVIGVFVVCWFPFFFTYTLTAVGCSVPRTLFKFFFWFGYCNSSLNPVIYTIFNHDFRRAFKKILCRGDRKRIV
UniProt P18825: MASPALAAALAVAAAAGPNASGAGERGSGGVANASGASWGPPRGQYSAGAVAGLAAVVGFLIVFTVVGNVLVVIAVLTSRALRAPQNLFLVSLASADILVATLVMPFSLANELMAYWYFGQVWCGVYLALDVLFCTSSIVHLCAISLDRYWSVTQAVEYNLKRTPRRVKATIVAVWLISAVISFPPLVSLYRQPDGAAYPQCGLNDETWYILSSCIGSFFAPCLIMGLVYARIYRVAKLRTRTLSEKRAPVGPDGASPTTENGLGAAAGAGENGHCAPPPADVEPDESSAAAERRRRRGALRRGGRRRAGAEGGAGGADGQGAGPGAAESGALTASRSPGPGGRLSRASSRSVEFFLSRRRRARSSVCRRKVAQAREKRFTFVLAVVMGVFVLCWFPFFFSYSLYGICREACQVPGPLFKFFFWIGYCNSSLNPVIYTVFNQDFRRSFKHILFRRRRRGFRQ
UniProt P25100: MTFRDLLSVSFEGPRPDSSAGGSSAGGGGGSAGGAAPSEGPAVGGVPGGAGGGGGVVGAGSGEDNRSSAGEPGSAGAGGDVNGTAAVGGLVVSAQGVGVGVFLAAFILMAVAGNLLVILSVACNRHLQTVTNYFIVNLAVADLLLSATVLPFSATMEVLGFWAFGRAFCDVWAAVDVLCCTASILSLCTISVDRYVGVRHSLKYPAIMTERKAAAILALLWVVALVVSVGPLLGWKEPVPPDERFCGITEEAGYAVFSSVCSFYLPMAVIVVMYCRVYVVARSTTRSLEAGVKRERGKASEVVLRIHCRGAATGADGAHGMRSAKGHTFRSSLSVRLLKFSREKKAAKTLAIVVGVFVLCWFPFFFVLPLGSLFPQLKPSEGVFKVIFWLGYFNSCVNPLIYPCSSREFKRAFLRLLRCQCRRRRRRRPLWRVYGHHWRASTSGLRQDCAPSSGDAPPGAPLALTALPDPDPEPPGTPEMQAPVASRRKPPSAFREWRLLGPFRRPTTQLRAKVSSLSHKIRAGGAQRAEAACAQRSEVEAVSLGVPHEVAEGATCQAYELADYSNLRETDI
UniProt P35368: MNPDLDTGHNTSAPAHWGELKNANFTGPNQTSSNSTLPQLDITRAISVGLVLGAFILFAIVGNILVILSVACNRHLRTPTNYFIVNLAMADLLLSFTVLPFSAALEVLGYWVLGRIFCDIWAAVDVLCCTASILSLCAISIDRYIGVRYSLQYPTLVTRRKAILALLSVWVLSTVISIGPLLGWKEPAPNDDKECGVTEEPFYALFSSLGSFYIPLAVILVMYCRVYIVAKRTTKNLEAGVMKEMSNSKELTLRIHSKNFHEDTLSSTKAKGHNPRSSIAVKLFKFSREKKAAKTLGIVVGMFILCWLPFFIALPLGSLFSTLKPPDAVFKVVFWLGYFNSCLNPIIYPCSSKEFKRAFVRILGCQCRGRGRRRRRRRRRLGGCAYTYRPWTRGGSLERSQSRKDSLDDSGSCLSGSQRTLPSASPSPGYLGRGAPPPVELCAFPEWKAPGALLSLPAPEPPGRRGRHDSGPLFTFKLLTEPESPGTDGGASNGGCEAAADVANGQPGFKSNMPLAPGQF
UniProt P18089: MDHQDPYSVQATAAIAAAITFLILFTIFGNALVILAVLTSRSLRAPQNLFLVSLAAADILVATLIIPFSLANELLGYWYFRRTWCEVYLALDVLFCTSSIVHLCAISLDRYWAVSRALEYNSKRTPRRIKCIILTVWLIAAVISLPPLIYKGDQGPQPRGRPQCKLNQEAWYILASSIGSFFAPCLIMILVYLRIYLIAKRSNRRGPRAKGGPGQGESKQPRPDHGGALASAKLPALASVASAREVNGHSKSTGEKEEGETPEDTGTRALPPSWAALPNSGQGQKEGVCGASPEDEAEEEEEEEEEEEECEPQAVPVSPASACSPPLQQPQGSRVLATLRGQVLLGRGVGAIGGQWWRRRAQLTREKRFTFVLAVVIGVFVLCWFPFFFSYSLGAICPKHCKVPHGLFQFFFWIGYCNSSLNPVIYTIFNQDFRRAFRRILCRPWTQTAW

Molecular target: Adrenergic receptor alpha (Homo sapiens) (UniProt P35348+P08913+P18825+P25100+P35368+P18089)
Assay: Blocking activity towards Alpha adrenergic receptor of rabbit aortic tissue preparation was determined
Settings: Oryctolagus cuniculus; target entry is the homologue from another species

SMILES	-Log KB
C[C@@H]1CN=C(Cc2ccccc2)N1	4.77
C[C@H]1CN=C(Cc2ccccc2)N1	4.85
